The structures appear in SMILES notation.

Protein sequences, listed by entry. Tags and fused reporters are not part of them. Lines headed by an entry give the natural chain unless they say otherwise; changes in a name come on top. Residues count along the entry.
UniProt Q9VDH5: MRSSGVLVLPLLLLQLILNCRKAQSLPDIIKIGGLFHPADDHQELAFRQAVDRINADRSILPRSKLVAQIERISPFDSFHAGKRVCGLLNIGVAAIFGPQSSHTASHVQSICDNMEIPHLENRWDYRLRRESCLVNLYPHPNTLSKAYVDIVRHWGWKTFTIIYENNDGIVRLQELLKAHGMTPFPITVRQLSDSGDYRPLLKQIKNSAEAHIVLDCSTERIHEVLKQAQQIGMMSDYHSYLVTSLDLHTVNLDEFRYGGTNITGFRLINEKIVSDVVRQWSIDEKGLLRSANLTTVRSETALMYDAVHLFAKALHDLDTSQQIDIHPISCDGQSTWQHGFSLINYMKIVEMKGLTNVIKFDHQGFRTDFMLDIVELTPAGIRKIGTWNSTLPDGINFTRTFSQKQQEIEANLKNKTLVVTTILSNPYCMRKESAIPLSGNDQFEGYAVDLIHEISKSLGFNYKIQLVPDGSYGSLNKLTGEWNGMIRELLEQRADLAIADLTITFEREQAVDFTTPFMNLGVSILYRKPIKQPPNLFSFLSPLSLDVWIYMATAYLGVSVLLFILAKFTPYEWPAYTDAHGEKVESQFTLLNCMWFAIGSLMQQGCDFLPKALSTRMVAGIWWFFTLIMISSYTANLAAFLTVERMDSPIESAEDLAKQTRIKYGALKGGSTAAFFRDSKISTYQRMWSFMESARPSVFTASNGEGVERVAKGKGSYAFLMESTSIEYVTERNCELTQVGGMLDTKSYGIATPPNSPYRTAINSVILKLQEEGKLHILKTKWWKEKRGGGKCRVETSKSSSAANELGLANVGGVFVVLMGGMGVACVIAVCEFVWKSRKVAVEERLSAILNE
UniProt Q03445, 28-991: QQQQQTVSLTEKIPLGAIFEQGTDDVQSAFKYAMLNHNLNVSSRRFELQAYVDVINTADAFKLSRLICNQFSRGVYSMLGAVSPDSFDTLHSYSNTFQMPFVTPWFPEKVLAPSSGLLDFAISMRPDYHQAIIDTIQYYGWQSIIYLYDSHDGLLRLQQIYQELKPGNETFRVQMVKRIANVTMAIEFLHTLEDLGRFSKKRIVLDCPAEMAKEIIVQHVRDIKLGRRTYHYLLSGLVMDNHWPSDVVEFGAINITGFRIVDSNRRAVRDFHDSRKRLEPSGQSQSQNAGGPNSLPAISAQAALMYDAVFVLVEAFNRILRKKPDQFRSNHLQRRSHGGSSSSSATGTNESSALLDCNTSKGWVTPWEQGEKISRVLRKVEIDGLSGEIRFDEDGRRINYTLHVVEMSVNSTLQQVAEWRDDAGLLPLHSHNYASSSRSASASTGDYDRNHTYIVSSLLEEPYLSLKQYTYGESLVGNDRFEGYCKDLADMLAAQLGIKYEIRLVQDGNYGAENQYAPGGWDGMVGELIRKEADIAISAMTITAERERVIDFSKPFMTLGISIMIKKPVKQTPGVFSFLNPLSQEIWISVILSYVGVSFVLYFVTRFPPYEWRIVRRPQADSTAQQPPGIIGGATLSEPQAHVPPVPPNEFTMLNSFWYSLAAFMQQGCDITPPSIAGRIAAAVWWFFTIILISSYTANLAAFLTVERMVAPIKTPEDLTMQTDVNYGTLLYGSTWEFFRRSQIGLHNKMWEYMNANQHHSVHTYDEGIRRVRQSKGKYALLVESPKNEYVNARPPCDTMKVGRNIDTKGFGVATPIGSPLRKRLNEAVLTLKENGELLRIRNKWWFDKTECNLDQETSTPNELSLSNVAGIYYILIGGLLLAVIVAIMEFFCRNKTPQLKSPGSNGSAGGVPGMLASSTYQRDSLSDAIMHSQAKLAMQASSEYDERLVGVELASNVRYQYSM

In one assay the target is DKaiR1D (Drosophila melanogaster, UniProt Q9VDH5). The class given is cell-based.
In another assay the target is DGluR1A (Drosophila melanogaster, UniProt Q03445). Nature of the assay: DGluR1A coexpressed with Apis Stg1 in Xenopus oocytes. In kind it is cell-based. To be noted: agonists 3 mM, -60 mV.

Turning to `C=C(C)[C@H]1CN[C@H](C(=O)O)[C@H]1CC(=O)O` [kainate], the EC50 at DKaiR1D turned out to be 39 ± 1 µM. Besides, the “amplitude of responses relative to those to glutamate” value on DKaiR1D (all ligands 10 mM, fraction of glutamate response, -60 mV) is 0.37 ± 0.03. In addition, the “response relative to glutamate at saturating concentrations” value at DKaiR1D (saturating concentrations) is given as 16%. On DGluR1A, the “response relative to glutamate response” value is 4.1 ± 0.3 times.

These data come from article PMC5145767 (Neuron, 2016).
